This assay addresses VSV-G fused with GFP11 at its C terminus (VSV-G-GFP11) (Vesicular Stomatitis Virus (Indiana strain)) (UniProt P03522). In words: cell-based or functional assay.

With “Cre recombinase fused with GFP1-10 (Cre-GFP1-10) (from UniProt P06956 1-343)”, the fold increase in efficiency of Cre delivery, tethered against untethered was found to be 26 fold.

(Values after patent US20210309702A1.)
